Source: US20230115515A1, “PYRAZOLYLPROPANAMIDE COMPOUNDS AND USES THEREOF FOR TREATMENT OF PROSTATE CANCER” (priority 2020, published 2023)

Protein sequences, listed by entry. Tags and fused reporters are not part of them. Lines headed by an entry give the natural chain unless they say otherwise; changes in a name come on top. Residues count along the entry.
UniProt P15207, 643-902: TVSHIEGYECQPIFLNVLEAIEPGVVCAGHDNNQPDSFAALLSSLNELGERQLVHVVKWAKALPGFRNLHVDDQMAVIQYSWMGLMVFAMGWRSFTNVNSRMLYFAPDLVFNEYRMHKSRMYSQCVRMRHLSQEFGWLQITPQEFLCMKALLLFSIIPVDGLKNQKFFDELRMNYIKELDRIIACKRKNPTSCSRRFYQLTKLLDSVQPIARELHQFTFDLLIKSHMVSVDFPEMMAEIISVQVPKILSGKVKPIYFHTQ
UniProt P06401: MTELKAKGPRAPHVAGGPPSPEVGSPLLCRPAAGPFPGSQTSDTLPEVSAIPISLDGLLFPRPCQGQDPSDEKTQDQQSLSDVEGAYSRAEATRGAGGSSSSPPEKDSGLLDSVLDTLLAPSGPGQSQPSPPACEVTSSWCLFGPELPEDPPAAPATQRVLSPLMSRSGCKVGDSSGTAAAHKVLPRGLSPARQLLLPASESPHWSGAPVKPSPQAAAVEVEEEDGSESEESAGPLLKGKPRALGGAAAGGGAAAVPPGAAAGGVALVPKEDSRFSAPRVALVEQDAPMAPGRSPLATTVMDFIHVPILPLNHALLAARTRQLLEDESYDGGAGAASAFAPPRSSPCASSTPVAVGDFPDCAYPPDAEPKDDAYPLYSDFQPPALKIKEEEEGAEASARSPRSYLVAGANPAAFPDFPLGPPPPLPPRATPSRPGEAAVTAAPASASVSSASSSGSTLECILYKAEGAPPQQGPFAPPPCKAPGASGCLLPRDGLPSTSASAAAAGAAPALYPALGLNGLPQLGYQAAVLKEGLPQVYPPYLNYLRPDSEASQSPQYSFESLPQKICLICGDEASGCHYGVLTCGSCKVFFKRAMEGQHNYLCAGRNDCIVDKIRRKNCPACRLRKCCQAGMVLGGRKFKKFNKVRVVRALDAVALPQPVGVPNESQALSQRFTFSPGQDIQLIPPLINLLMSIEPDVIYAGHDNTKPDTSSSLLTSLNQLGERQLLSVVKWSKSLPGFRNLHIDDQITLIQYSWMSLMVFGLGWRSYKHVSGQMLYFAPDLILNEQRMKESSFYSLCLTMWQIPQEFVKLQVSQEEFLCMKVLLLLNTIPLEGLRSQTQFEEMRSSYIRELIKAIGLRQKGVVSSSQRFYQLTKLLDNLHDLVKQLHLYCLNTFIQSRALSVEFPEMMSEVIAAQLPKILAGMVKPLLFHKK

Experiments:
[1] = biological target: recombinant LBD of wildtype AR (wtAR) (Rattus norvegicus, UniProt P15207); assay: biochemical
[2] = Metabolic stability in human liver microsomes (phase I and II); type: in vitro ADME
[3] = Metabolic stability in rat liver microsomes (phase I and II); type: in vitro ADME
[4] = biological target: wtPR (Homo sapiens, UniProt P06401); details: read-out: wtPR IC50

Compound | Ki [1] | also measured
C[C@](O)(Cn1cc(C#CCCO)cn1)C(=O)Nc1ccc(C#N)c(C(F)(F)F)c1 [Compound 16r, (S)—N-(4-Cyano-3-(trifluoromethyl)phenyl)-2-hydroxy-3-(4-(4-hydroxybut-1-yn-1-yl)-1H-pyrazol-1-yl)-2-methylpropanamide] | > 10 µM | 
C[C@](O)(Cn1cc(F)cn1)C(=O)Nc1ccc(C(N)=O)nc1 [Compound 21g, (S)-5-(3-(4-Fluoro-1H-pyrazol-1-yl)-2-hydroxy-2-methylpropanamido)picolinamide] | > 10 µM | 
C[C@](O)(Cn1cc(F)cn1)C(=O)Nc1ccc2ncncc2c1 [Compound 21h, (S)-3-(4-Fluoro-1H-pyrazol-1-yl)-2-hydroxy-2-methyl-N-(quinazolin-6-yl)propanamide] | > 10 µM | 
C[C@](O)(Cn1cc(NC(=O)CCl)cn1)C(=O)Nc1ccc(C#N)c(C(F)(F)F)c1 [Compound 16w, (S)-3-(4-(2-Chloroacetamido)-1H-pyrazol-1-yl)-N-(4-cyano-3-(trifluoromethyl)phenyl)-2-hydroxy-2-methylpropanamide] | > 10 µM | 
C[C@](O)(Cn1cc(F)cn1)C(=O)Nc1cnc(C#N)c(C(F)(F)F)c1 [Compound 21a] |  | HLM T1/2 ([2]; cofactors for phases I and II): >2 h; half-life at 1 µM ([2]; human, microsomes, pH 7.5): > 2 h; RLM T1/2 ([3]; cofactors for phases I and II): >2 h; half-life at 1 µM ([3]; rat, microsomes, pH 7.5): > 2 h; IC50 [4]: 0.235 µM
CC(=O)Nc1cnn(C[C@](C)(O)C(=O)Nc2ccc(C#N)c(C(F)(F)F)c2)c1 [Compound 16v, (S)-3-(4-Acetamido-1H-pyrazol-1-yl)-N-(4-cyano-3-(trifluoromethyl)phenyl)-2-hydroxy-2-methylpropanamide] | > 10 µM | 
